Values quoted from earlier work in patent US9545418B2, “ON01910.Na enhances chemotherapeutic agent activity in drug-resistant tumors” (THE JOHNS HOPKINS UNIVERSITY, priority 2008, dated 2017).
Where “and” joins values, the source holds several entries; their conditions need not be identical. Equal values may be shown once. Read-outs that look alike come from different tables or passages of the source.

Settings: cited from earlier work; for deaths (animals died/treated) / STD/LD10: Rats; for STD/LD10: IV bolus

COc1cc(OC)c(/C=C/S(=O)(=O)Cc2ccc(OC)c(NCC(=O)O)c2)c(OC)c1 [ON-01910-Na]
deaths (animals died/treated) (2x/wk, 4 wk, 900 mg/m^2): 1/24
deaths (animals died/treated) (2 x/wk, 4 wks, 2100 mg/m^2): 5/9
STD/LD10 (2 x/wk, 4 wks): < 2100 mg/m^2
deaths (animals died/treated) (7 day repeat dosing, 1200 mg/m^2): 2 of 13 and 2/13
deaths (animals died/treated) (28 day repeat, 450 mg/m^2): 1/36
deaths (animals died/treated) (28 day repeat, 900 mg/m^2): 11/36
STD/LD10 (28 day repeat): < 900 mg/m^2
deaths (animals died/treated) (single dose, 3000 mg/m^2): 9 of 11 and 9/11
STD/LD10 (single dose): < 3000 mg/m^2
myelotoxicity, neuropathy, or cardiotoxicity (rat and dog toxicology studies): no evidence of significant myelotoxicity, neuropathy, or cardiotoxicity
